# According to ChEMBL document CHEMBL1131886 (Bioorg Med Chem Lett, 1999):
# Chains of the proteins cited; added tags and fusions are not shown.
# UniProt P31652, whole entry: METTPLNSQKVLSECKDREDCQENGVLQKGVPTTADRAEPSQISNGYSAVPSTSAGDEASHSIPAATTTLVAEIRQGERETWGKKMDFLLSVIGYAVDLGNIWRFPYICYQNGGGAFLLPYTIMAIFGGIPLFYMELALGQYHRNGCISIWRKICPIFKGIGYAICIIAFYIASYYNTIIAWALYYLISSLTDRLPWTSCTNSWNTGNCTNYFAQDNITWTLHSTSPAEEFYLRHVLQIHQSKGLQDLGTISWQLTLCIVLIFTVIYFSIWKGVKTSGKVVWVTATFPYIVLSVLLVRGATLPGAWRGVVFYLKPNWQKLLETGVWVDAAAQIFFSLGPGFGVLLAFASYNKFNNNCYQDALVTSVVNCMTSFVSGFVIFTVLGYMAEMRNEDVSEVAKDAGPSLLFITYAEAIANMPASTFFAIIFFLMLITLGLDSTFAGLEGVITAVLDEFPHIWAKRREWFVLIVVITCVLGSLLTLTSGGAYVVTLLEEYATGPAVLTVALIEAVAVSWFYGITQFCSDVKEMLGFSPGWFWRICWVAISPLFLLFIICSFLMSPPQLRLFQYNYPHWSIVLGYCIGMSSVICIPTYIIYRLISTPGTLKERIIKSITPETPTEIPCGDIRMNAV
# Molecular target: Sodium-dependent serotonin transporter (Rattus norvegicus, UniProt P31652)
# Experiment: Displacement of specific [3H]- citalopram binding to 5-HT uptake site in rat whole cortex
smiles,measurement,value
CC(C)NCC(O)COc1cccc2[nH]ccc12 (stereo unspecified) [PINDOLOL],Ki,> 7 µM
